Data: patent US5846944A, “Purified SDG as an antioxidant” (priority 1997, dated 1998)

Legend:
[1] = Body weight of hypercholesterolemic rabbits (Example 1); assay type: in vivo, New Zealand white rabbits; settings: 2 months; control diet without cholesterol; flaxseed 15% or SDG 15 mg/kg oral
Experimental: (§1) Experiments were carried out on six to eight week old female New Zealand white rabbits weighing between 1.8 and 2.0 kg. All procedures relating to the care and welfare of test animals within this experimental protocol conformed to a Standard Operating Procedure (SOP) approved by the Council on Animal Care, University of Saskatchewan, Saskatoon, Saskatchewan, Canada.
(§2) Blood samples for measurement of triglycerides (TG), total cholesterol (TC), low density lipoprotein cholesterol (LDL-C), very-low density lipoprotein cholesterol (VLDL-C), and high density lipoprotein cholesterol (HDL-C) were taken before the animals were assigned to the experimental diet (T=0), and after 1 (T=1) and 2 months (T=2) on the experimental diet. The rabbits were sacrificed under pentabarbital anesthesia at the end of 2 months. The aorta was removed for the assessment of atherosclerotic plaques.
Much has been made of the importance of the composition of certain dietary fats toward health, particularly in relation to the degree of saturation of the fatty acid composition of the triglycerides.

[2] = Body weight of hypercholesterolemic rabbits (Example 4); assay type: in vivo, New Zealand White rabbits; settings: 2 months; + 1% cholesterol; SDG 5 mg/kg or SDG (89% pure) 11.24 mg/kg, orally daily
Experimental: as §1, §2
The experiments of Example 1 were repeated using a different group of rabbits and different dosages of SDG. One series of tests were conducted in which SDG in pure form was administered orally in a daily dosage of 5 mg/kg. Another series of tests were conducted in which the SDG was in the form of a crude extract containing 89% by weight of SDG as obtained by the process described in U.S. application Ser. No. 08/415,050.

Question: With `COc1cc(CC(COC2OC(CO)C(O)C(O)C2O)C(COC2OC(CO)C(O)C(O)C2O)Cc2ccc(O)c(OC)c2)ccc1O` (centres unmarked) [SDG, secoisolariciresinol diglucoside] as the compound, how does the body weight [1] read?
Answer: 2.84 ± 0.05 kg

Question: What about the body weight [2] of the same compound?
Answer: 2.58 ± 0.08 kg
